Source: article PMC4207771, “Identification and Characterization of Novel Renal Sensory Receptors” (PLoS ONE, 2014)

Protein sequences, listed by entry. Tags and fused reporters are not part of them. Residues count along the entry.
UniProt Q3KPA7, 1-317: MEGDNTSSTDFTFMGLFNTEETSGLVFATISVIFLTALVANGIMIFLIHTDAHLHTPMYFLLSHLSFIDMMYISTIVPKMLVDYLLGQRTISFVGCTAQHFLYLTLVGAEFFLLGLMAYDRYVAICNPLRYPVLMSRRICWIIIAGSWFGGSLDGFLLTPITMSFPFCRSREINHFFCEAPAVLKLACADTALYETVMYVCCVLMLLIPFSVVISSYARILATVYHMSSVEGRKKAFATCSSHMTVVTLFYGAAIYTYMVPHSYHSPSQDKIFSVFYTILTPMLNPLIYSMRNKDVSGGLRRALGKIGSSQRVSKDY

Tests used:
Conditions in all cases: chemicals tested individually, screened at 500uM (* also at 100uM)
Olfr693 = assay: dual-luciferase (cAMP/CREB reporter) ligand screen, Olfr693 in HEK293T cells; type: cell-based, mouse
Olfr99 = assay: dual-luciferase (cAMP/CREB reporter) ligand screen, Olfr99 in HEK293T cells; type: cell-based, mouse
Olfr31 = Olfr31 (Mus musculus, UniProt Q3KPA7); assay: dual-luciferase (cAMP/CREB reporter) ligand screen, Olfr31 in HEK293T cells; type: cell-based

OCCN(CCO)CCO
-: Olfr693 response in dual-luciferase assay (Olfr693) | Olfr99 response in dual-luciferase assay (Olfr99) | Olfr31 response in dual-luciferase assay (Olfr31)
